Results reported in patent US5700469A, “HIV-1 core protein fragments” (Medical Research Council, priority 1990, dated 1997).

System: human leucocyte antigen (HLA) class I molecule
Assay: CTL assay: lysis of 51-chromium labelled, HLA-matched B lymphoblastoid target cells sensitized with peptide
Format: cell-based
Procedure: Peptides in accordance with the invention can also be used for diagnostic purposes. […] Briefly, fresh peripheral blood mononuclear cells (or lymphocytes obtained from biopsy material) are prepared and added at ratios of 50:1, 25:1 and 10:1 to 10^4 51 -chromium labelled B lymphoblastoid cells matched for the relevant HLA molecules. The HLA type of patient is determined in known manner by tissue typing, and B lymphoblastoid cells obtained from a donor of known HLA type (again determined in known manner by tissue typing) and transformed with Epstein Barr using known techniques. A peptide in accordance with the invention, which interacts with the relevant HLA molecule, is also added to the cells in a concentration of 10 to 100 u molar. After 4 hours incubation the supernatant is removed and the released ^51 -chromium measured. The ^51 -chromium released is compared to that released by incubation of labelled cells in detergent, which gives a maximum value, and released by labelled cells incubated in medium alone, which gives a minimum value. If lysis (defined by ^51 -chromium released of at least two times the minimum value) is observed it means that there are cytotoxic T lymphocytes in the patients' mononuclear cells and these are likely to be indicative of infection with HIV.

| SMILES | HLA class I molecule with which the peptide interacts specifically | HLA restriction of the peptide (through one or more of the antigens) (HLA restrictions not yet fully worked out) |
| --- | --- | --- |
| CC[C@H](C)[C@H](NC(=O)[C@H](Cc1c[nH]cn1)NC(=O)[C@H](CCCCN)NC(=O)[C@H](CC(C)C)NC(=O)[C@H](CCCCN)NC(=O)[C@H](Cc1ccc(O)cc1)NC(=O)[C@H](CCCCN)NC(=O)[C@H](CCCCN)NC(=O)[C@H](CCCCN)NC(=O)CNC(=O)CNC(=O)[C@@H]1CCCN1C(=O)[C@H](CCCNC(=N)N)NC(=O)[C@H](CC(C)C)NC(=O)[C@@H](N)CS)C(=O)N[C@H](C(=O)O)C(C)C [p17-3, NH2 -cysteine-leucine-arginine-proline-glycine-glycine-lysine-lysine-lysine-tyrosine-lysine -leucine-lysine-histidine-isoleucine-valine-COOH] | HLA B8 |  |
| CC(C)C[C@H](NC(=O)[C@@H](NC(=O)[C@H](C)NC(=O)[C@@H](NC(=O)[C@@H](NC(=O)[C@H](CC(N)=O)NC(=O)[C@H](Cc1ccc(O)cc1)NC(=O)[C@H](CC(C)C)NC(=O)[C@H](CO)NC(=O)[C@H](CCCNC(=N)N)NC(=O)[C@H](CC(C)C)NC(=O)[C@H](CCC(=O)O)NC(=O)[C@H](CCC(=O)O)NC(=O)[C@H](CO)NC(=O)CNC(=O)[C@@H](N)CS)[C@@H](C)O)C(C)C)[C@@H](C)O)C(=O)O [p17-8, NH2 -cysteine-glycine-serine-glutamic acid-glutamic acid-leucine-arginine-serine-leucine-tyrosine-asparagine-threonine-valine- alanine-threonine-leucine-COOH] | HLA A2 |  |
| CC(C)C[C@H](NC(=O)[C@@H](NC(=O)[C@H](CCCCN)NC(=O)[C@H](Cc1ccc(O)cc1)NC(=O)[C@H](Cc1ccccc1)NC(=O)[C@H](CCCNC(=N)N)NC(=O)[C@H](CC(=O)O)NC(=O)[C@@H](NC(=O)[C@H](Cc1ccc(O)cc1)NC(=O)[C@H](CC(=O)O)NC(=O)[C@H](CCCNC(=N)N)NC(=O)[C@@H](N)Cc1ccccc1)C(C)C)[C@@H](C)O)C(=O)N[C@@H](CCCNC(=N)N)C(=O)N[C@@H](C)C(=O)N[C@@H](CCC(=O)O)C(=O)N[C@@H](CS)C(=O)O [p24-7, NH2-phenylalanine-arginine-aspartic acid-tyrosine-valine-aspartic acid-arginine-phenylalanine-tyrosine-lysine-threonine-leucine-arginine-alanine-glutamic acid-cysteine-COOH] |  | HLA-A3 or A29 or B44 or B14 |
